Target: T1, Dihydrofolate reductase (Pneumocystis carinii, UniProt P16184)
T1 sequence (P16184 whole entry): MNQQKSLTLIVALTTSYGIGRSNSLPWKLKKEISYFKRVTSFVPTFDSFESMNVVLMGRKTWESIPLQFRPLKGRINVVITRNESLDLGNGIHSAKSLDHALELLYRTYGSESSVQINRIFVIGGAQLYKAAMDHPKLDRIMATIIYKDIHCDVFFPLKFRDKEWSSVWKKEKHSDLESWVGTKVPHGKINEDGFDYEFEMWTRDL

## Nc1nc(N)c2c3c(oc2n1)CN(Cc1ccc(C(=O)N[C@@H](CCC(=O)O)C(=O)O)cc1)CC3
  IC50: 10.9 µM

Reference: ChEMBL document CHEMBL1131530, “Synthesis and biological activities of tricyclic conformationally restricted tetrahydropyrido annulated furo[2,3-d]pyrimidines as inhibitors of dihydrofolate reductases” (J Med Chem, 1998)
